Structures are written as SMILES. The list shows a part of the results. Active and inactive are the calls of the source.

Protein sequences, listed by entry. Tags and fused reporters are not part of them. Lines headed by an entry give the natural chain unless they say otherwise; changes in a name come on top.
UniProt P54132: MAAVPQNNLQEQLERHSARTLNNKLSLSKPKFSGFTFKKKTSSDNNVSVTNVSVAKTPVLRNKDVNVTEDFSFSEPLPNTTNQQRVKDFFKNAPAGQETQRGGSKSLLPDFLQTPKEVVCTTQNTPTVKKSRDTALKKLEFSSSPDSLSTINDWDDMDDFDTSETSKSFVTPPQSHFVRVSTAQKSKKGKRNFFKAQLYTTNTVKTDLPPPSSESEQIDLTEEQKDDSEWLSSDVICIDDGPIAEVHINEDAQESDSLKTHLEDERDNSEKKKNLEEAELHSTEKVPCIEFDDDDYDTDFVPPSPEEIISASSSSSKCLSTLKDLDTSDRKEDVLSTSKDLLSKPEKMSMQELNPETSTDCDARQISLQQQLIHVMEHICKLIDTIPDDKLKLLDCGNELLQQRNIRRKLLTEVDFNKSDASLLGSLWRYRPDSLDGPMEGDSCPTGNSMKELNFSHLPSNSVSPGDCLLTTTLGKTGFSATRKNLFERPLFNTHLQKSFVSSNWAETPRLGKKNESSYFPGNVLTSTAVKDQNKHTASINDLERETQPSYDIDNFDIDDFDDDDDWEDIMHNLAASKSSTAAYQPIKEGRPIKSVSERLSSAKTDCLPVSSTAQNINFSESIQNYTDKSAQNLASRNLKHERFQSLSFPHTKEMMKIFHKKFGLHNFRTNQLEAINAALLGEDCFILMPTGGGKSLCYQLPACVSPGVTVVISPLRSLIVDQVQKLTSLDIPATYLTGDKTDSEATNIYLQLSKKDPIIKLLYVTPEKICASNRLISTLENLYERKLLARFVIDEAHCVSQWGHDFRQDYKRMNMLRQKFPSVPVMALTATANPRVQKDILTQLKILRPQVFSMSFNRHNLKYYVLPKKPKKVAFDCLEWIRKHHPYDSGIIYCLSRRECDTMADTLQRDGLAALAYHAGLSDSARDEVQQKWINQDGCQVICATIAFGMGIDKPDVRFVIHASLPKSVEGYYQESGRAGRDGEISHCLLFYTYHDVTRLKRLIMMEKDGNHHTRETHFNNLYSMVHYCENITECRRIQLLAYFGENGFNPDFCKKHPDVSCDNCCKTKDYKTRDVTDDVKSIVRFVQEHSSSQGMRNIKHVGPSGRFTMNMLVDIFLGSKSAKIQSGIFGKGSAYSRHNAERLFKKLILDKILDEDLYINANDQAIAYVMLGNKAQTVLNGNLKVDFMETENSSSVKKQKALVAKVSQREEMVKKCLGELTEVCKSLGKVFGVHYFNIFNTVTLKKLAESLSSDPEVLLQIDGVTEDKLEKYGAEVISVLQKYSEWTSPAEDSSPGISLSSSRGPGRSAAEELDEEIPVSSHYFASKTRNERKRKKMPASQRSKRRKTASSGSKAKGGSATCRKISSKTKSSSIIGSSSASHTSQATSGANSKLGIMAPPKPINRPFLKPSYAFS

These results are taken from PubChem BioAssay AID504662 (National Center for Advancing Translational Sciences (NCATS), 2011).

This assay addresses RecQ-like DNA helicase BLM (Homo sapiens) (UniProt P54132). Briefly: Inhibitors of BLM Helicase: DNA Unwinding Measured by Gel Electrophoresis - BLM Helicase Activity. The settings on record: Purified BLM.

For `O=C(Nc1ccc(F)c(C(F)(F)F)c1)Nc1nnc(-c2ccncc2)s1`, the Potency was active: 5 µM.
